US10188756B2, “Imaging histone deacetylases with a radiotracer using positron emission tomography” (THE GENERAL HOSPITAL CORPORATION, priority 2013, dated 2019)

Protein sequences, listed by entry. Tags and fused reporters are not part of them.
UniProt Q92769, whole entry: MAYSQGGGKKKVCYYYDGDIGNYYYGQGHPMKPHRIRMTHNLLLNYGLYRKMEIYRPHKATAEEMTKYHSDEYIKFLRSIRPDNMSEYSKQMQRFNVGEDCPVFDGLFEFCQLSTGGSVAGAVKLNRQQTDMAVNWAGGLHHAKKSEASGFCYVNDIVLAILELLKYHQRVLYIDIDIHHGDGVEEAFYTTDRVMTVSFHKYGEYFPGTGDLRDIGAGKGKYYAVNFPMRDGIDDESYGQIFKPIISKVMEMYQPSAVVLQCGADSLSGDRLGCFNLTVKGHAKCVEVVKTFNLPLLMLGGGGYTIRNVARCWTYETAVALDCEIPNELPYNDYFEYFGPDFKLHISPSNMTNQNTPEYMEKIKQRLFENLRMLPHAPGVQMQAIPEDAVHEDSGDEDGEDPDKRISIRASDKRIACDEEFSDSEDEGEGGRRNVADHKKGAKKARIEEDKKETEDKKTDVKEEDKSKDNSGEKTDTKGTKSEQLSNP

Molecular target: HDAC2 (Homo sapiens (Human), UniProt Q92769)
Test: HDAC inhibition assay
Type: biochemical
Description: All histone deacetylases were purchased from BPS Bioscience. […] All the other reagents were purchased from Sigma-Aldrich.

IC50: 7 nM
SMILES: CN(Cc1ccc(/C=C/C(=O)NO)cc1F)CC12CC3CC(CC(C3)C1)C2 [CN149]
